Key:
[1] = test system: AxCT mask27 EGFR EH104 L040 version 1
[2] = test system: AxCT mask27 EGFR EH104 L059 version 1
[3] = test system: AxCT mask27 EGFR EH104 L063 version 1
[4] = test system: AxCT mask27 EGFR EH104 L043 version 1
[5] = test system: AxCT mask27 EpCAM H90.2 L040 version 1
[6] = test system: AxCT mask27 EpCAM H90.2 NCLV
[7] = test system: AxCT mask27 EGFR EH104 L057 version 1
[8] = test system: AxCT mask27 EpCAM H90.2 L061 version 1
[9] = test system: AxCT mask27 EGFR EH104 L068 version 1
[10] = test system: AxCT mask27 EpCAM H90.2 L064 version 1
[11] = test system: AxCT mask27 EGFR EH104 L070 version 1
[12] = test system: AxCT mask27 EGFR EH104 L058 version 1
[13] = test system: AxCT mask27 EpCAM H90.2 L041 version 1
[14] = test system: AxCT mask27 EGFR EH104 L055 version 1
[15] = test system: AxCT mask27 EpCAM H90.2 L073 version 1
[16] = test system: AxCT mask27 EpCAM H90.2 L076 version 1
[17] = test system: AxCT mask27 EpCAM H90 L001 version 1
[18] = test system: AxCT mask27 EGFR EH104 L062 version 1
[19] = test system: AxCT mask27 EGFR EH104 L064 version 1
[20] = test system: AxCT mask27 EpCAM H90.2 L043 version 1
[21] = test system: AxCT mask27 EpCAM H90.2 L060 version 1
[22] = test system: AxCT mask27 EGFR EH104 L072 version 1
[23] = test system: AxCT mask27 EGFR EH104 L069 version 1
[24] = test system: AxCT mask27 EGFR EH104 L066 version 1
[25] = test system: AxCT mask27 EpCAM H90.2 L075 version 1
[26] = test system: AxCT mask27 EpCAM H90.2 L059 version 1
[27] = test system: AxCT mask27 EpCAM H90.2 L063 version 1
[28] = test system: AxCT mask27 EGFR EH104 L060 version 1
[29] = test system: AxCT mask27 EGFR EH104 L054 version 1
[30] = test system: AxCT mask27 EGFR EH104 L061 version 1
[31] = test system: AxCT mask27 EGFR EH104 L071 version 1
[32] = test system: AxCT mask27 EGFR EH104 L067 version 1
[33] = test system: AxCT mask27 EGFR EH104 L001 version 1
[34] = test system: AxCT mask27 EGFR EH104 L073 version 1
[35] = test system: AxCT mask27 EGFR EH104 L065 version 1
[36] = test system: AxCT mask27 EGFR EH104 L041 version 1
[37] = test system: AxCT mask27 EGFR EH104 L056 version 1

Row | Substance | Percent cleavage [1] [%] | Percent cleavage [2] [%] | Percent cleavage [3] [%] | Percent cleavage [4] [%] | Percent cleavage [5] [%] | Percent cleavage [6] [%] | Percent cleavage [7] [%] | Percent cleavage [8] [%] | Percent cleavage [9] [%] | Percent cleavage [10] [%] | Percent cleavage [11] [%] | Percent cleavage [12] [%] | Percent cleavage [13] [%] | Percent cleavage [14] [%] | Percent cleavage [15] [%] | Percent cleavage [16] [%] | Percent cleavage [17] [%] | Percent cleavage [18] [%] | Percent cleavage [19] [%] | Percent cleavage [20] [%] | further results
1 | MMP-13 | 30 | 49 | 23 | 22 | 43 | 0 | 31 | 77 | 52 | 45 | 11 | 47 | 20 | 61 | 31 | 35 | 95 | 56 | 24 | 34 | Percent cleavage [21]: 18%; Percent cleavage [22]: 56%; Percent cleavage [23]: 51%; Percent cleavage [24]: 21%; Percent cleavage [25]: 0%; Percent cleavage [26]: 82%; Percent cleavage [27]: 34%; Percent cleavage [28]: 13%; Percent cleavage [29]: 29%; Percent cleavage [30]: 43%; Percent cleavage [31]: 37%; Percent cleavage [32]: 33%; Percent cleavage [33]: 65%; Percent cleavage [34]: 18%; Percent cleavage [35]: 53%; Percent cleavage [36]: 14%; Percent cleavage [37]: 26%
2 | Urokinase-type Plasminogen Activator | 22 | 9 | 13 | 40 | 39 | 0 | 0 | 11 | 0 | 0 | 0 | 10 | 43 | 24 | 0 | 0 | 0 | 13 | 0 | 61 | Percent cleavage [21]: 9%; Percent cleavage [22]: 0%; Percent cleavage [23]: 0%; Percent cleavage [24]: 0%; Percent cleavage [25]: 0%; Percent cleavage [26]: 16%; Percent cleavage [27]: 19%; Percent cleavage [28]: 0%; Percent cleavage [29]: 7%; Percent cleavage [30]: 6%; Percent cleavage [31]: 0%; Percent cleavage [32]: 0%; Percent cleavage [33]: 0%; Percent cleavage [34]: 0%; Percent cleavage [35]: 0%; Percent cleavage [36]: 28%; Percent cleavage [37]: 8%

From US20240336909
